Tested on: capsaicin decomposing/synthesizing enzyme (purified enzyme from Streptomyces mobaraensis IFO13819)
Experiment: Synthesis of capsaicin analogs from vanillylamine and fatty acids with the enzyme of the invention
Format: biochemical
Details: vanillylamine and various saturated fatty acids; in words

`CCCCCCCCCCCC(=O)O` [Lauric acid] was tested, and the “synthesis reactivity among saturated fatty acids as substrates” value was “highest”.

— US20030157670A1 (priority 2002, published 2003)
